## Apparent affinities of Ab-14 variants for a coronavirus HR2 peptide

Antigen: PDVDLGDISGINAS, a 14-residue peptide of the SARS-CoV-2 spike HR2 region.

Each scFv is VH, a (GGGGS)3 linker, VL, as in the parent Ab-14, and differs from it in the CDRs of the light chain only.
VH: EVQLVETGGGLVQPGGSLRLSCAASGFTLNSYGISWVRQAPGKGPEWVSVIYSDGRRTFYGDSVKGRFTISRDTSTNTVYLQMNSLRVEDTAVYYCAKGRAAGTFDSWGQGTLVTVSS
VL: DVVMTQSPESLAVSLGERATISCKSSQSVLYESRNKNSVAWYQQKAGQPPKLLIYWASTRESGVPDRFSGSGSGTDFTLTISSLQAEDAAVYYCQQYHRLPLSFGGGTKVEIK

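The parent was found by panning a naive human phage display library on the peptide. In library AAYL50, one, two or three CDR residues were substituted; doubles and triples were drawn at random. AlphaSeq pools MATa yeast showing the antibodies with MATalpha yeast showing the peptide. After mating in shaken culture at 30 °C for 16 h, diploids were selected and their barcode pairs sequenced. Scores were corrected for input abundance and mapped to Kd with protein pairs of known affinity run in the same pool. Each pool was mated in three replicate cultures.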

Substitutions are numbered in sequence along the VL above, starting at 1 (not Kabat). The read-out is the apparent dissociation constant on a log10 scale (nM): the lower, the stronger. The mean shown is taken over the replicates in which the pair was detected. "nd" means that the variant was in the library but no mating with the target was seen in that replicate; the authors take this as a sign of poor binding, and no number exists. In this assay the parent's reference entry averaged 0.65; its copy inside this library read 1.68.

changes | log10 Kd (nM) by replicate | mean log10 Kd (nM)
S26W R34A Q95G | nd nd nd | nd
E32P P101F L102H | 0.88 0.97 0.74 | 0.86
Y31Q Q95W R99F | 5.71 4.40 2.95 | 4.35
K24R S28H V39S | nd nd 5.93 | 5.93
S28G K36W S38P | 3.11 2.79 3.00 | 2.97
N35Q W56N A57F | 0.77 0.99 1.04 | 0.94
E32C A40K L100H | nd 2.91 nd | 2.91
S28G Y31C N35T | 3.86 2.29 2.98 | 3.05
L100M P101K S103G | 1.57 nd 1.97 | 1.77
Q27P S38W S62D | 2.27 1.93 2.63 | 2.28
E61R Q95Y S103W | nd nd nd | nd
S26C V29R R34Q | 1.50 1.67 1.81 | 1.66
N35S T59H P101W | 1.22 1.32 1.52 | 1.35
S25F S28P L100S | 3.63 nd nd | 3.63
S26C S28T Q95V | 1.57 1.83 1.55 | 1.65
R34C L100A | nd nd 1.75 | 1.75
K24W Y97Q | 1.87 2.12 2.21 | 2.07
W56R S58C Q96V | nd 4.44 3.25 | 3.85
V29N S62H Y97V | 3.43 2.51 2.06 | 2.67
S25C S26Q | 0.25 0.64 0.60 | 0.50
A40N S62F R99Y | 4.94 3.54 4.58 | 4.35
V29N E61G | 1.18 1.45 1.51 | 1.38
W56P S103K | 2.42 2.02 2.54 | 2.33

Continued, with the values leading:

log10 Kd (nM) by replicate | mean log10 Kd (nM) | changes
nd nd nd | nd | K36M N37S A40F
1.81 1.57 1.77 | 1.72 | S58G Y97M L102I
0.92 1.01 1.21 | 1.05 | Y31M T59L R99L
nd 3.64 nd | 3.64 | S26P R34C R60V
1.14 1.43 1.73 | 1.43 | S26Y E61Y S103I
2.81 3.08 2.85 | 2.91 | Q27D R60S S62P
nd nd nd | nd | R34C A40H A57C
2.60 1.71 2.28 | 2.20 | K36G S62T R99D
1.31 1.44 1.32 | 1.35 | R34C T59M L100N
nd nd nd | nd | S28W A40G
0.41 0.61 0.66 | 0.56 | V39I Y97P P101Y
0.76 1.04 0.90 | 0.90 | K24Q L102N S103T
nd nd nd | nd | N37T V39Q T59Y
nd 3.89 nd | 3.89 | S28I L102C
3.62 2.94 3.34 | 3.30 | E61C L102N
nd nd nd | nd | A57K Q96W Y97I
3.02 nd nd | 3.02 | N37T A40W T59V
0.77 0.94 0.94 | 0.88 | N37D H98K S103E
nd nd 5.65 | 5.65 | S33T N37L R99W
nd nd nd | nd | K24V W56Y P101S
0.89 0.92 1.11 | 0.97 | K24Y S25I Q96N
nd 3.41 5.22 | 4.31 | S58W H98G R99A
3.23 nd nd | 3.23 | S38V V39Y A57T

Extract of 3 entries:

changes | log10 Kd (nM) by replicate | mean log10 Kd (nM)
S28G Y31C N35T | 3.86 2.29 2.98 | 3.05
L100M P101K S103G | 1.57 nd 1.97 | 1.77
S26W R34A Q95G | nd nd nd | nd

Background: pairings of library AAYL50 with three empty control strains gave a value in 18% of cases (median 4.19, 5th percentile 2.99). Values in that range, when seen in few replicates, are hard to tell from nonspecific mating.

Values reported by Engelhart et al. 2022, doi:10.1038/s41597-022-01779-4 (FLAb copy).